Drawing on US20070167349A1, “Estrogen cancer therapy” (Cell Therapeutics, Inc., priority 2005, published 2007), this text covers PTX in tumor for 1 compound.

Read-outs that look alike come from different tables or passages of the source.

This data set has as its system HT-29 CRC xenograft tumor. The settings on record: Paclitaxel iv 90 mg/kg, pool of 3 tumors.

On to `CC(=O)O[C@H]1C(=O)[C@@]2(C)[C@H]([C@H](OC(=O)c3ccccc3)[C@]3(O)C[C@H](OC(=O)[C@H](O)[C@@H](NC(=O)c4ccccc4)c4ccccc4)C(C)=C1C3(C)C)[C@]1(OC(C)=O)CO[C@@H]1C[C@@H]2O` [Paclitaxel, paclitaxel], for which the PTX in tumor by setting is: (+(E2), 24 h) 6810; (+(E2), 168 h) 421; (−(P), 24 h) 7310.
